In patent publication US10118915B2, “Kappa opioid ligands” (The Scripps Research Institute, priority 2012, dated 2018) one finds IC50 data, which are given here for 3 molecules.

Sequences of proteins named here, by UniProt entry; tags and fusion partners are left off. A change or cut given only in a name is not applied to a line headed by its entry.
UniProt P41145: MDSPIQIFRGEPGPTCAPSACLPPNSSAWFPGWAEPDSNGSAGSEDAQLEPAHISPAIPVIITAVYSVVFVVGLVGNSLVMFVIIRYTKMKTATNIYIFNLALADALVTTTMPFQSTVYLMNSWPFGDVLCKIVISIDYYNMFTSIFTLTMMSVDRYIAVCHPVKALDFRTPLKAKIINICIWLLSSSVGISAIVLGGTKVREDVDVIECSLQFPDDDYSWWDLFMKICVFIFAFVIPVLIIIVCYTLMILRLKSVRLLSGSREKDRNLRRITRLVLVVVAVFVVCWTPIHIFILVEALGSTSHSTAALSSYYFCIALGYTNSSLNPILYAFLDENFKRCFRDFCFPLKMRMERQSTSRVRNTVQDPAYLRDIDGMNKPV

Molecules are shown by their SMILES.

Broadly, the IC50 is the concentration that inhibits the measured activity by half. Read a high IC50 as a need for much substance.

This assay deals with kappa opioid receptor (OPRK1) (Homo sapiens (Human), UniProt P41145). The assay is described as follows: OPRK1 antagonist assay (b-arrestin-2-TEV protease / b-lactamase reporter cell line, EC80 challenge of U-50488). The assay is classed as cell-based. Particulars: antagonist mode vs EC80 U-50488.
`CCC1CN(c2nnc(C)cc2-c2nc(C)no2)CCC1NC1CCCCC1` (stereo not drawn) [compound 185] returned a half-inhibitory concentration (IC50) of 0.024 µM. With `Cc1cc(C(=O)OC(C)C)c(N2CCC(NC3CCCCC3)CC2)nn1` [compound 385] the figure was 0.001 µM. With `Cc1cc(C(=O)OC(C)C)c(N2CCC(NC3CCOCC3)CC2)nn1` [compound 409] the figure was 0.129 µM.
